Drawing on PubChem BioAssay AID686996 (Broad Institute, 2013), this text covers inhibition for 61 molecules.

Chains of the proteins cited; added tags and fusions are not shown. Residues count along the entry.
UniProt P55212, 24-179 limits assumed: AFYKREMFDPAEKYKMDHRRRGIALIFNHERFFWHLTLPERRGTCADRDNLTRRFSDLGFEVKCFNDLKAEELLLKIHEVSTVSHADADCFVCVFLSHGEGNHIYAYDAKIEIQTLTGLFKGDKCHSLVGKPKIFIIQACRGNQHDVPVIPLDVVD
UniProt P55212, 194-293 limits assumed: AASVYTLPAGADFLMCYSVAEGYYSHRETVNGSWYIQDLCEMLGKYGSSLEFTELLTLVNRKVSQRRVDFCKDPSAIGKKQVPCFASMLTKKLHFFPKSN

Molecules are shown by their SMILES. This is a selection; strong and weak results do not stand in their true shares. Some salts and complexes are drawn in separate pieces, as the source files them; their charges need not balance. Calls of active or inactive are those of the source.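 The calls were made as follows: active = mean inhibition across replicates at least about 35%, with every replicate also reaching that limit (limit read from the data); inconclusive = only one of the two criteria met; inactive = neither criterion met.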

In this assay the target is Caspase-6 (Homo sapiens) (UniProt P55212). As to the kind of experiment: human caspase-6 inhibitors, primary screen, biochemical, VEID-R110 fluorescence, single point, set 2 (AID 686996).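 Also: 0% = median of neutral control wells and 100% = no fluorescence left.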 The note with it: purified caspase-6, Z-VEID-R110 cleavage fluorescence; at 12.5 µM; stronger effect = higher value.
On to `COc1ccc(NP(C)(=O)Oc2ccccc2OC)cc1` (stereo unspecified), for which the inhibition (commonly the relative decrease from the control value, in per cent) was inactive: -0.957%.
As for `Cc1c(C(c2ccc3c(c2)OCO3)c2c(C)n(C)n(-c3ccccc3)c2=O)c(=O)n(-c2ccccc2)n1C.O=[N+]([O-])c1cc([N+](=O)[O-])c(O)c([N+](=O)[O-])c1`, the figure is inactive: 1.46%; as for `O=[N+]([O-])c1ccc(OP2(=O)COCCO2)cc1` (stereo unspecified), inactive: 2.81%.
As for `Cc1cc(-c2cccc3ccccc23)c(C)cn1.O=[N+]([O-])c1cc([N+](=O)[O-])c(O)c([N+](=O)[O-])c1`, the figure is inactive: 7.68%; as for `O=[N+]([O-])c1cc([N+](=O)[O-])c(NCC2CCS(=O)(=O)C2)c([N+](=O)[O-])c1` (stereo unspecified), inactive: 1.22%.
Next, `CCOP(=O)(CC)OCC`: inactive: -1.07%; `CP(=O)(Nc1ccc(SC(F)(F)F)cc1)Oc1ccc(F)cc1` (stereo unspecified): inactive: 2.33%; `O=[N+]([O-])c1cc([N+](=O)[O-])c(C(F)(F)F)c([N+](=O)[O-])c1O`: inactive: 1.68%.
Consider `CP(=O)(Nc1ccccc1F)Oc1ccccc1` (stereo unspecified), for which the inhibition is inactive: 0.413%.
On to `CC(C)c1ccc(OP(C)(=O)Nc2ccc(SC(F)(F)F)cc2)cc1` (stereo unspecified), for which the inhibition is inactive: 0.84%.
As to `O=[N+]([O-])c1cc([N+](=O)[O-])c(Nc2ccc(Cl)cc2)c([N+](=O)[O-])c1`, the inhibition was inactive: -2.62%.
As for `COc1ccc2c(c1O)-c1c(O)c(OC)cc3c1[C@H](C2)[N+](C)(C)CC3.O=[N+]([O-])c1cc([N+](=O)[O-])c([O-])c([N+](=O)[O-])c1[O-]`, the inhibition was inactive: 6.3%.
Take `O=C(OC1CN2CCC1CC2)c1ccc([N+](=O)[O-])cc1` (stereo unspecified): the inhibition is inactive: -53.7%.
Take `O=C(OCCN1CCN(CCOCc2ccccc2)CC1)C(O)(c1ccccc1)c1ccccc1`: the inhibition was inactive: -5.67%.
Next, `COc1ccc(OP(C)(=O)Nc2ccc(SC(F)(F)F)cc2)cc1` (stereo unspecified): inactive: 2.39%; `CCN(CC)CCCNc1ccccc1[N+](=O)[O-].O=[N+]([O-])c1cc([N+](=O)[O-])c(O)c([N+](=O)[O-])c1`: inactive: -15.3%.
In the case of `O=[N+]([O-])c1cc([N+](=O)[O-])c(OC2CCCCC2O)c([N+](=O)[O-])c1` (stereo unspecified), the inhibition was inactive: 19.6%.
For the molecule `CCCCCOc1ccc(NP(C)(=O)Oc2ccc(Cl)cc2Cl)cc1` (stereo unspecified), the inhibition was inactive: -0.891%.
As for `Cc1c([N+](=O)[O-])cc([N+](=O)[O-])c(Br)c1[N+](=O)[O-]`, the figure is inactive: 3.86%; as for `Cc1cc(C)cc(OP(C)(=O)Nc2cccc(C(F)(F)F)c2)c1` (stereo unspecified), inactive: 0.936%.
For `O=C1C(O)=C([N+](=O)[O-])C(=O)C(O)=C1[N+](=O)[O-]`, the inhibition was active: 63.1%.
Consider `CP(=O)(OCCOc1ccccc1)OCCOc1ccccc1`, for which the inhibition is inactive: -0.793%.
Turning to `CP(=O)(Nc1ccc(Cl)cc1Cl)Oc1ccccc1` (stereo unspecified), the inhibition is inactive: -3.23%.
As for `CCCCCCCCCCCCCCCC1C[N+](C)(C)CCOP(C)(=O)O1` (stereo unspecified), the inhibition is inactive: -214%.
For the molecule `COc1ccccc1OP(C)(=O)Nc1ccc(Br)cc1` (stereo unspecified), the inhibition was inactive: 0.816%.
As for `O=[N+]([O-])c1cc([N+](=O)[O-])c(Nc2ccccn2)c([N+](=O)[O-])c1`, the inhibition is inactive: 10.3%.
Take `O=C(OCCCN1CCCC1)C(O)(c1ccccc1)C1CCCCC1` (stereo unspecified): the inhibition is inactive: -5.69%.
As for `CCc1ccc(OP(C)(=O)Nc2cccnc2)cc1` (stereo unspecified), the figure is inactive: 6.19%; as for `CN(C)C(=O)c1c([N+](=O)[O-])cc([N+](=O)[O-])cc1[N+](=O)[O-]`, inactive: -0.816%.
As for `COc1ccccc1OP(C)(=O)Nc1ccccc1Br` (stereo unspecified), the inhibition is inactive: -2.52%.
As for `CCOC(=O)c1ccc(NP(C)(=O)Oc2ccc(Cl)cc2)cc1` (stereo unspecified), the figure is inactive: 6.77%; as for `Nc1ccc2c(ccc3cccnc32)n1.O=[N+]([O-])c1cc([N+](=O)[O-])c(O)c([N+](=O)[O-])c1`, inactive: -0.55%.
Next, `CP(=O)(Nc1ccccc1Br)Oc1ccccc1` (stereo unspecified): inactive: -0.486%; `COc1ccccc1OP(C)(=O)Nc1ccccc1` (stereo unspecified): inactive: -2.69%; `CCc1ccc(OP(C)(=O)N2CCN(c3ccc([N+](=O)[O-])cc3)CC2)cc1` (stereo unspecified): inactive: 4.05%.
Next, `CP(=O)(NC(=O)Nc1ccccc1)Oc1ccccc1` (stereo unspecified): inactive: 2.53%.
For `CP(=O)(Oc1ccccc1)OC(c1ccccc1)C(F)(F)F` (stereo unspecified), the inhibition was inactive: 5.69%.
Turning to `CP(=O)(Nc1ccc(SC(F)(F)F)cc1)Oc1ccc(Cl)cc1` (stereo unspecified), the inhibition is inactive: 4.66%.
As for `CP(=O)(Nc1ccccn1)Oc1ccc(Cl)cc1` (stereo unspecified), the figure is inactive: 0.821%.
Turning to `CCOC(=O)c1ccc(NP(C)(=O)Oc2ccc(OC)cc2)cc1` (stereo unspecified), the inhibition is inactive: 0.906%.
`O=[N+]([O-])c1cc([N+](=O)[O-])c(O)c([N+](=O)[O-])c1.c1ccc(Oc2ccncc2)cc1`: the inhibition was inactive: -3.32%.
For the molecule `CCN(CC)CCCOC(=O)C(O)(c1ccccc1)c1ccccc1`, the inhibition is inactive: -5.46%.
With `COc1ccccc1-c1ccccn1.O=[N+]([O-])c1cc([N+](=O)[O-])c(O)c([N+](=O)[O-])c1`, the inhibition was inactive: 1.51%.
Consider `O=[N+]([O-])c1ccc2c(c1)C=Nc1ccccc1O2`, for which the inhibition was inactive: -2.07%.
Next, `Cc1cccc(C)c1OP(C)(N)=O` (stereo unspecified): inactive: -3.03%; `CC(C)(C)c1ccc(OP(C)(=O)Nc2ccc(SC(F)(F)F)cc2)cc1` (stereo unspecified): inactive: -2.71%.
Regarding `Cc1cc(C)cc(OP(C)(N)=O)c1` (stereo unspecified), the inhibition is inactive: -5.18%.
With `COc1ccccc1OP(C)(=O)Nc1cc(Cl)ccc1C` (stereo unspecified), the inhibition was inactive: 1.12%.
Take `O=C(O)c1cccc(Nc2c([N+](=O)[O-])cc([N+](=O)[O-])cc2[N+](=O)[O-])c1`: the inhibition is inactive: 6.72%.
With `CCOC(=O)c1ccc(NP(C)(=O)Oc2cc(C)cc(C)c2)cc1` (stereo unspecified), the inhibition is inactive: 0.352%.
`Cc1cc(C)cc(OP(C)(=O)Nc2ccc(C)cc2C)c1` (stereo unspecified): the inhibition was inactive: 3.46%.
Next, `COc1ccccc1OP(C)(=O)Nc1cccc(Br)c1` (stereo unspecified): inactive: -0.989%; `Cc1cc(C)cc(OP(C)(=O)Nc2ccccn2)c1` (stereo unspecified): inactive: -1.13%; `CN(Cc1cccnc1)C(=O)COc1ccc(Cl)c(Cl)c1.O=[N+]([O-])c1cc([N+](=O)[O-])c(O)c([N+](=O)[O-])c1`: inactive: 1.73%.
Regarding `O=[N+]([O-])c1cc([N+](=O)[O-])c(-n2nnc3ccccc32)c([N+](=O)[O-])c1`, the inhibition is inactive: 4.8%.
Next, `O=[N+]([O-])c1cc([N+](=O)[O-])c(-c2cnn(-c3ccccc3)c2)c([N+](=O)[O-])c1`: inactive: -1.61%; `CCOC(=O)C(CC)C1=NC(C)(C)Cc2ccccc21.O=[N+]([O-])c1cc([N+](=O)[O-])c(O)c([N+](=O)[O-])c1` (stereo unspecified): inactive: -1.07%.
For `O=[N+]([O-])c1cc([N+](=O)[O-])c(Nc2nnnn2CCO)c([N+](=O)[O-])c1`, the inhibition is inactive: 5.42%.
Turning to `COc1ccc(-c2ccccn2)cc1.O=[N+]([O-])c1cc([N+](=O)[O-])c(O)c([N+](=O)[O-])c1`, the inhibition was inactive: -1.01%.
As for `CCCOc1ccc(NP(C)(=O)Oc2ccc(Cl)cc2)cc1` (stereo unspecified), the inhibition is inactive: 0.891%.
Take `CN1CCCCC1COC(=O)C1(O)c2ccccc2CCc2ccccc21` (stereo unspecified): the inhibition was inactive: -0.209%.
